According to patent US20050239832A1, “Methods of treatment of amyloidosis using bi-cyclic aspartyl protease inhibitors” (priority 2004, published 2005):

Test: Brain uptake in CF-1 mice after IV administration
Details: 10 μmol/kg IV
Description: The following assay was employed to determine the brain penetration of compounds encompassed by the present invention.
In-life phase: Test compounds were administered to CF-1 (20-30 g) mice at 10 μmol/kg (4 to 7 mg/kg) following IV administration in the tail vein. Two time-points, 5 and 60 min, were collected post dose. Four mice were harvested for heparinized plasma and non-perfused brains at each time-point for a total of 8 mice per compound.
Analytical phase: Samples were extracted and evaporated to dryness, then reconstituted and injected onto a reverse phase chromatographic column while monitoring the effluent with a triple quadrupole mass spectrometer. Quantitation was then performed with a 1/x^2 weighted fit of the least-squares regression from calibration standards prepared in parallel with the in vivo samples. The LOQ is generally 1 ng/mL and 0.5 ng/g for the plasma and brain respectively. Data was reported in micromolar (μM) units. Brain levels were corrected for plasma volumes (16 μL/g).

N-{1-(3,5-Difluoro-benzyl)-3-[6-(2,2-dimethyl-propyl)-1,2,3,4-tetrahydro-quinolin-4-ylamino]-2-hydroxy-propyl}-acetamide [Example 91.14]
[Brain/[Plasma] 5 min (5 min post dose): 0.2 | [Brain/[Plasma] 60 min (60 min post dose): 2.2
